# Source: publication PMC10740956, “A Multitarget Approach against Neuroinflammation: Alkyl Substituted Coumarins as Inhibitors of Enzymes Involved in Neurodegeneration” (Antioxidants, 2023)
# Assays:
# hMAO-B = biological target: T1, hMAO-B (Homo sapiens, UniProt P27338); test: hMAO-B inhibition, recombinant enzyme, kynuramine substrate, fluorescence; type: biochemical; conditions: IC50 hMAO-A/IC50 hMAO-B
# T1 construct: purchased Sigma-Aldrich
# hCA IX = hCA IX (Homo sapiens, UniProt Q16790); test: stopped flow CO2 hydrase assay, hCA IX; type: biochemical; conditions: mean of 3 different assays
Structure (SMILES),SI (selectivity index for hMAO-B over hMAO-A) (hMAO-B),Ki (hCA IX) [nM]
"CCC#CCOc1ccc2ccc(=O)oc2c1 [Compound 7, 7-(Pent-2-yn-1-yloxy)-2H-chromen-2-one]",1396,–
"C#CCOc1ccc2ccc(=O)oc2c1 [Compound 5, 7-(Prop-2-ynyloxy)-2H-chromen-2-one]",1.99,1350
"C#CCCCOc1ccc2ccc(=O)oc2c1 [Compound 8, 7-(Pent-4-yn-1-yloxy)-2H-chromen-2-one]",11.2,–
